human u-PA
uPA kinetics, fold increase as compared to substrate 1004/LP′/0001 (CM1-CM2 substrate 2005): in the range of about 3- to 4-fold
uPA kinetics, fold increase as compared to substrate 2001 (CM1-CM2 substrate 2003): in the range of about 3- to 4-fold

Reference: patent US11472875
